Patent publication US10064797B2, “Topical formulations for UV protection” (TOPGENIX, INC., priority 2014, dated 2018)

Experiment: UV absorption spectra of the compounds, avobenzone and their combinations
Type: physicochemical
Settings: compound alone
Experimental: In both cases, the absorptivity of these two compounds were studied. In addition, photostability of these two compounds were also assessed by taking a second UV absorption spectra after exposing the compounds to UV. Photostability of sun screening compounds are of critical importance as a compound would be completely ineffective if they lose their UV absorptive qualities shortly after being exposed to solar radiation.
Avobenzone is an example for a known chemical UV absorber that can be combined.

Substance: 2-Methoxy-3-{(4-methoxyphenyl)imino} cyclohex-1-ene amino acetic acid
- wavelength of strongest (maximum) UV absorption: 337 nm
